Paper PMC6235002, “Born to sense: biophysical analyses of the oxygen sensing prolyl hydroxylase from the simplest animal Trichoplax adhaerens” (Hypoxia, 2018)

Sequences of proteins named here, by UniProt entry; tags and fusion partners are left off. Residues count along the entry.
UniProt Q9GZT9, 181-426: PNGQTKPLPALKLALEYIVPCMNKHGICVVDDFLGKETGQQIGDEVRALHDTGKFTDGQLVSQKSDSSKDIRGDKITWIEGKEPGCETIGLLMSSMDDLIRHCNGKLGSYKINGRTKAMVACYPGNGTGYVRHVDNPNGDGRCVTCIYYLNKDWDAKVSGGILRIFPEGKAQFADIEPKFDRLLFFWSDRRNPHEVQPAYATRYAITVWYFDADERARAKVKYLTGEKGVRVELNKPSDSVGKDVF
UniProt I6QVT6, entry or part of it: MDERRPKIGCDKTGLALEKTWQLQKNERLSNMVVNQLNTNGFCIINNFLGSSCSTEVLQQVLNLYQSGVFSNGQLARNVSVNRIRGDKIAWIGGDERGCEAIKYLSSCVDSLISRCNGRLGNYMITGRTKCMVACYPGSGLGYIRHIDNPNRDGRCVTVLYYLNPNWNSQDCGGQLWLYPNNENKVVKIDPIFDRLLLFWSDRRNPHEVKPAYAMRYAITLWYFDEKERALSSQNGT

Tests used:
HsPHD2^181-426 = HsPHD2^181-426 (Homo sapiens, UniProt Q9GZT9); conditions: HsPHD2, no substrate; 20 µM enzyme, 125 µM Fe(II), 1 mM ascorbate, 400 µM 2OG, 50 mM Tris-D11 pH 7.5, 10% D2O/90% H2O; ^1H NMR
Description: Notes: (A) Sequence alignment of TaHIFa, HsHIFa, and substrates of PHD-like enzymes in Dictyostelium discoideum (DdSkp1) and Pseudomonas putida (PpEF-Tu). […] Peptide hydroxylation was analyzed by MALDI-MS; the apparent non-enzymatic Met oxidation was subtracted. Data were fitted with the Michaelis-Menten equation using GraphPad Prism® (errors are indicated as standard deviations, n=3).

TaPHD^64-300 = TaPHD^64-300 (Trichoplax adhaerens, UniProt I6QVT6); conditions: no substrate, 20 µM enzyme, 125 µM Fe(II), 1 mM ascorbate, 400 µM 2OG, 50 mM Tris-D11 pH 7.5, 10% D2O/90% H2O, ^1H NMR
TaPHD = conditions: cited from earlier work

For O=C(O)CCC(=O)C(=O)O [2OG, 2-oxoglutarate], the “rate of uncoupled 2OG turnover” value (HsPHD2^181-426) is given as “very low”, the “rate of uncoupled 2OG turnover” value (TaPHD^64-300) is given as “very low” and the “half-life of TaPHD.Fe.2OG complex” value (TaPHD) is given as greater than 24 h.
